Structures are written as SMILES. Where “and” joins values, the source holds several entries; their conditions need not be identical. Equal values may be shown once. The entries are a selection whose mix differs from that of the whole data set. Inconclusive results are not listed. Calls of active or inactive are those of the source. Calls follow the shape of the dose curve; as a rule, active = well fitted inhibition curve with a large enough effect; inconclusive = small, poorly fitted or top-dose-only effect; inactive = no such curve, though single readings can be large or run the other way.

Amino acid sequences for entries named in this document (tags omitted). A change or cut given only in a name is not applied to a line headed by its entry.
UniProt O95398: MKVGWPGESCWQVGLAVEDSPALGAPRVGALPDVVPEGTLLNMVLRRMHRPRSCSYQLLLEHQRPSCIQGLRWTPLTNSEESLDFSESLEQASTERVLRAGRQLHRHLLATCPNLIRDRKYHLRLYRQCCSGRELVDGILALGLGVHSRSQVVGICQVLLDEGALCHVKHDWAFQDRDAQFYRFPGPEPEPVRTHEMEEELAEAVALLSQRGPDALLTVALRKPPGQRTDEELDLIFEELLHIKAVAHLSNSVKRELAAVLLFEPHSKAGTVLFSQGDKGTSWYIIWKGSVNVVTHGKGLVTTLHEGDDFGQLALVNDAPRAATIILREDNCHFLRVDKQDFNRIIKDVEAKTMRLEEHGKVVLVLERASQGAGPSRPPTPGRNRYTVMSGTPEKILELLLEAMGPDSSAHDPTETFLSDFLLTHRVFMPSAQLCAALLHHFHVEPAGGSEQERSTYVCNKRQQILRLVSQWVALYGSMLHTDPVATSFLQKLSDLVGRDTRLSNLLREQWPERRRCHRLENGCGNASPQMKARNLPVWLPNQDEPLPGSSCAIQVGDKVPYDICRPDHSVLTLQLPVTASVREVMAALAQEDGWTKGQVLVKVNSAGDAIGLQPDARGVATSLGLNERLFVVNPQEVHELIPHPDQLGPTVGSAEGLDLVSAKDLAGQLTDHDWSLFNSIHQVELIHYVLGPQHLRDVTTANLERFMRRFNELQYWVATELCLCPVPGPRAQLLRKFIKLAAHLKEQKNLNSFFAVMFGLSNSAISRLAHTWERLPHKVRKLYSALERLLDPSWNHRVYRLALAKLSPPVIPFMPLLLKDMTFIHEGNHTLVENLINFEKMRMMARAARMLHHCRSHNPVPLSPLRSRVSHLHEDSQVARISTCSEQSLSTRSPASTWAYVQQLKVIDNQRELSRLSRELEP

The test concerns the target Rap guanine nucleotide exchange factor 3 (Homo sapiens) (UniProt O95398). Description: Validation qHTS for antagonist of cAMP-regulated guanine nucleotide exchange factor 3 (EPAC1). Also: nearly all actives have a fitted effect of over 75% in size. The settings on record: EPAC1 Rap1B-BODIPY-GDP exchange, fluorescence. An excerpt: Assay Provider (PI): Xiaodong Cheng Ph.D.
The University of Texas Medical Branch, […], TX
In multi-cellular eukaryotic organisms, the effects of cAMP are transduced by two ubiquitously-expressed intracellular cAMP receptors, the classic protein kinase A/cAMP-dependent protein kinase (PKA/cAPK) and the more recently discovered exchange protein directly activated by cAMP/cAMP-regulated guanine nucleotide exchange factor (EPAC/cAMP-GEF). Both PKA and EPAC are ubiquitously expressed in all tissues, and an increase in intracellular cAMP levels will lead to the activation of both PKA and EPAC. Therefore, careful dissections of the individual role and relative contribution of EPAC and PKA within the overall cAMP signaling in various model systems are critical for further elucidating the mechanism of cAMP signaling. To date no EPAC-specific antagonists and agonist, as well as isoform-specific agonists have been reported, and developing EPAC-specific pharmacological probes to determine the physiological functions that EPAC play in the overall cAMP-mediated signaling remains a major challenge within the research field. Furthermore, identified regulators of EPAC may lead to new mechanism-based therapeutic strategies specifically targeting the EPAC / cAMP-signaling components as EPAC has been implicated to play important roles in major human pathological conditions such as diabetes, heart disease, and cancer.
This qHTS will be used to screen the Molecular Libraries Small Molecule Repository (MLSMR) as a concentration-titration series using the NCGC unique quantitative screening (qHTS) platform to find activators for EPAC1. In addition, this assay will also be used as a counterscreen for the EPAC2 qHTS. This fluorescent based assay is developed and validated for EPAC1 that measures exchange using EPAC effector Rap1 complex with BODIPY-GDP, a GDP analog with a tethered fluorophores. Activators are identified by monitoring the change in fluorescence signal as the exchanged free BODIPY-GDP has a reduced fluorescence compared to Rap1-bound BODIPY-GDP. Increase in signal (activation) is the desired outcome for the EPAC1 agonist while no activity in this assay is desired for the EPAC2 agonist counterscreen.
[1] de Rooij, J., Zwartkruis, F. J., Verheijen, M. H., Cool, R. H., Nijman, S. M., Wittinghofer, A., and Bos, J.L. (1998) Nature 396, 474-477.
Briefly, three uL of reagents (100 nM EPAC1, 250 nM RAP1B-BODIPY-GDP, 50 uM GDP) were dispensed into a 1536-well Greiner black solid-bottom medium binding assay plate. Controls and test compounds (23 nL) were transferred to the plate via a Kalypsys pin tool equipped with a 1536-pin array. The plates were centrifuged at 1,000 rpm for 15 seconds followed by 5 minute incubation at room temperature. The assay plates were read at 5 minute intervals for 30 minutes in the ViewLux plate reader using 480nm excitation and 540nm emission filters. The results were normalized to the […] positive control ATA and DMSO.
For orientation: qHTS replaces the single test concentration by a dilution series.

With `Nc1c(O)cc([N+](=O)[O-])cc1[N+](=O)[O-]`, for the setting “at 150 µM (top of the series)”, the activity change, negative = inhibition is inactive: -3.82%.
Consider `CN(C(=O)Cc1ccc(Cl)c(Cl)c1)[C@H]1CCCC[C@@H]1N1CCCC1`, for which, where the note is “at 75.8 µM (top of the series)”, the activity change, negative = inhibition was inactive: -6.03% and inactive: -11.6%.
As for `CCNC(C)Cc1ccc2c(c1)OCO2` (centres undefined), the activity change, negative = inhibition (at 320 µM (top of the series)) is inactive: 14.1%.
For the compound `CC(=O)C1=CCCC2CCC1N2` (centres undefined), for the setting “at 150 µM (top of the series)”, the activity change, negative = inhibition is inactive: 16.3%.
Regarding `COc1cc([N+](=O)[O-])c([N+](=O)[O-])cc1OC`, the activity change, negative = inhibition (at 150 µM (top of the series)) is inactive: 16.1%.
Turning to `Cc1cc(C=O)ccc1N(CCCl)CCCl`, where the note is “at 150 µM (top of the series)”, the activity change, negative = inhibition is inactive: 14.4%.
With `CN(C(=O)Cc1ccccc1)[C@H]1CC[C@@]2(CCCO2)C[C@@H]1N1CCCC1`, the activity change, negative = inhibition (at 150 µM (top of the series)) is inactive: 7.81%.
In the case of `Cc1cc([N+](=O)[O-])cc([N+](=O)[O-])c1O`, where the note is “at 320 µM (top of the series)”, the activity change, negative = inhibition is inactive: 20.6%.
For `COc1cccc([N+](=O)[O-])c1[N+](=O)[O-]`, the activity change, negative = inhibition (at 150 µM (top of the series)) was inactive: 15.1%.
`O=C(OC1CN2CCC1CC2)c1ccccc1` (centres undefined): where the note is “at 150 µM (top of the series)”, the activity change, negative = inhibition is inactive: 19.8%.
With `CN(C(=O)Cc1ccc(Cl)c(Cl)c1)[C@@H]1CCCC[C@@H]1N1CCCC1`, the activity change, negative = inhibition (at 75.8 µM (top of the series)) is inactive: 24.4%.
On to `O=[N+]([O-])c1cc([N+](=O)[O-])c2nc[nH]c2c1`, for which, for the setting “at 150 µM (top of the series)”, the activity change, negative = inhibition was inactive: 8.53%.
`CN(C(=O)Cc1ccccc1)[C@@H]1CC[C@]2(CCCO2)C[C@H]1N1CCCC1`: the activity change, negative = inhibition (at 75.8 µM (top of the series)) is inactive: 16.7%.
In the case of `CN(C(=O)Cc1ccc(Cl)c(Cl)c1)[C@H]1CC[C@@]2(CCCO2)C[C@@H]1N1CCCC1`, for the setting “at 150 µM (top of the series)”, the activity change, negative = inhibition was inactive: 30.7%.
`NC(=O)Nc1ccc([As](=O)(O)O)cc1`: where the note is “at 150 µM (top of the series)”, the activity change, negative = inhibition was inactive: 25.1%.
Take `CN(C(=O)Cc1ccc(Cl)c(Cl)c1)[C@@H]1CC[C@]2(CCCO2)C[C@H]1N1CCCC1`: the activity change, negative = inhibition (at 75.8 µM (top of the series)) is inactive: 5.54%.
For `CN(C(=O)Cc1ccc(Cl)c(Cl)c1)[C@@H]1CCCC[C@H]1N1CCCC1`, the activity change, negative = inhibition (at 150 µM (top of the series)) was inactive: 13.6%.
On to `CN(CCCl)Cc1cc(Cl)c(NC2=NCCN2)c(Cl)c1`, for which the activity change, negative = inhibition (at 75.8 µM (top of the series)) is inactive: -1.68% and the activity change, negative = inhibition (at 150 µM (top of the series)) was inactive: -1.35%.

The record behind these values is PubChem BioAssay AID1645882 (National Center for Advancing Translational Sciences (NCATS), 2021).
